The structures appear in SMILES notation. Only a part is listed here, and it is no random draw. Some tests of the compounds listed are not included; inactive here does not mean inactive elsewhere. Active and inactive are the calls of the source. No stated cut-off is given here; in the data, active means inhibition above about 13% (passing the limit was not always enough); inactive means the rest.

The chains behind the UniProt entries cited, without tags or fusion partners.
UniProt P0A9M0, whole entry: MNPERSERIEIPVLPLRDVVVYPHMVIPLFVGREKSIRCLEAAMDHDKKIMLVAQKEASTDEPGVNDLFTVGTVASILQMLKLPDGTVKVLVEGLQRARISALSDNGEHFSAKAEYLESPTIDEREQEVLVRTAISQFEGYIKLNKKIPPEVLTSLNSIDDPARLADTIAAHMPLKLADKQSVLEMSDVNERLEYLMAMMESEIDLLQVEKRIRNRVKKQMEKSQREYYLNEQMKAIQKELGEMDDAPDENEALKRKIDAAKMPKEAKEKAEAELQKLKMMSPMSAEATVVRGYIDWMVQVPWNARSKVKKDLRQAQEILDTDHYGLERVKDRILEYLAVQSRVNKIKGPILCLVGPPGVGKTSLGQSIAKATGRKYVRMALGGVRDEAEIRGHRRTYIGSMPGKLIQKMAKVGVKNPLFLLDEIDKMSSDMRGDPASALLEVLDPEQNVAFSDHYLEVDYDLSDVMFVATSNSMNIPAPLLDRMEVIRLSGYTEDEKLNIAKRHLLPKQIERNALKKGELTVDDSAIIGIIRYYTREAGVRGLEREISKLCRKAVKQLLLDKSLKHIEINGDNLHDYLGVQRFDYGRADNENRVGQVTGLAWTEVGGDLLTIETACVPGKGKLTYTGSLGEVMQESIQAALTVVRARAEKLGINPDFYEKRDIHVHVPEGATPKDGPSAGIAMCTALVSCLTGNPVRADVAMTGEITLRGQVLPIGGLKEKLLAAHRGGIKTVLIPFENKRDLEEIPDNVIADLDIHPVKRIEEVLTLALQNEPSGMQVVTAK

In PubChem BioAssay AID602123 (The Scripps Research Institute Molecular Screening Center, 2011) one finds inhibition data, which are given here for 26 compounds.

The target of this assay is Lon protease (Escherichia coli (strain K12)) (UniProt P0A9M0). Put plainly: E. coli eLon protease inhibition – biochemical, fluorescence polarization, primary screen (AID 602123).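 Further: 0% = enzyme with probe and DMSO and 100% = no enzyme.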 Particulars: purified E. coli Lon protease, at 7.94 µM, active compounds read high.
In the case of `O=C(NCC1(N2CCCCC2)CCCCC1)c1cccc(Cl)c1`, the inhibition is inactive: 1.9%. On to `COc1cccc(C(=O)NCC2(N3CCCCC3)CCCCC2)c1`, for which the inhibition is inactive: -8.53%. Turning to `COc1ccc(Cl)cc1C(=O)NCC1(N(C)C)CCCCC1`, the inhibition is inactive: 4.15%. In the case of `COc1cc(C(=O)NCC2(N(C)C)CCCCC2)c([N+](=O)[O-])cc1OC` it was inactive: -0.49%; in that of `CN(C)C1(CNC(=O)c2ccc(Br)cc2)CCCCC1`, inactive: -0.74%; in that of `CC(C)Oc1ccc(C(=O)NCC2(N(C)C)CCCCC2)cc1`, inactive: -7.5%. Then `O=C(OCCN1CCCC1)C(O)(c1ccccc1)c1ccccc1`, with inactive: -1.85%. In the case of `CN(C)c1cccc(C(=O)NCC2(N(C)C)CCCCC2)c1` it was inactive: -1.49%.

Consider `C=C(C)C#CC(O)(C(=O)OC1CCN(C)CC1)c1ccccc1` (stereo unspecified), for which the inhibition was inactive: 1.44%. In the case of `COc1ccc(Br)c(C(=O)NCC2(N3CCCCC3)CCCCC2)c1`, the inhibition is inactive: -13.7%. Then `O=C(OC1CN2CCC1CC2)C(CO)(c1ccccc1)c1ccccc1` (stereo unspecified), with inactive: -10.2%; and `Cc1ccc(C(=O)NCC2(N3CCCCC3)CCCCC2)cc1`, with inactive: -12.2%.

`CCN(CC)CC(C)C(C)OC(=O)C(O)(c1ccccc1)c1ccccc1` (stereo unspecified): the inhibition is inactive: 3.79%.

As to `COc1cc(SC)ccc1C(=O)NCC1(N(C)C)CCCCC1`, the inhibition is inactive: -0.43%. As to `CC(C)N1C(=O)CC2(CCN(CCOC(=O)C(O)(c3ccccc3)c3ccccc3)CC2)C1=O`, the inhibition is inactive: -16.2%. Regarding `CN1[C@@H]2CC[C@H]1CC(OC(=O)C(O)(c1ccccc1)c1ccccc1)C2` (stereo partly specified), the inhibition is inactive: 2.85%. With `O=C(NCC1(N2CCCCC2)CCCCC1)c1cc([N+](=O)[O-])ccc1Cl`, the inhibition is inactive: -1.79%. In the case of `COc1ccc(C(=O)NCC2(N(C)C)CCCCC2)cc1` it was inactive: -0.03%. In the case of `CCN1CCCC(OC(=O)C2(O)c3ccccc3C=Cc3ccccc32)C1` (stereo unspecified) it was inactive: 2.09%; in that of `Cc1cc(C(=O)NCC2(N3CCCCC3)CCCCC2)ccc1[N+](=O)[O-]`, inactive: 4.89%. In the case of `O=C(NCC1(N2CCCCC2)CCCCC1)c1cccc(Br)c1` it was inactive: 5.16%; in that of `C=CCN1CCN(CCOC(=O)C(O)(c2ccccc2)c2ccccc2)CC1`, inactive: 7.59%.

Take `O=C(NCC1(N2CCCCC2)CCCCC1)c1cc(F)c(F)cc1Cl`: the inhibition was inactive: 3.01%. For the compound `Cc1ccccc1C(=O)NCC1(N2CCCCC2)CCCCC1`, the inhibition was inactive: 3.05%.

Regarding `CN(C)c1ccc(C(=O)NCC2(N(C)C)CCCCC2)cc1`, the inhibition was inactive: -3.61%. For the compound `CN(C)C1CCCC1OC(=O)C(O)(c1ccccc1)c1ccccc1` (stereo unspecified), the inhibition was inactive: 8.03%.

The inhibition is the change of the read-out against control, counted positive when it falls.
